Experiment in all cases: yeast surface display affinity sorting with deep sequencing, enrichments normalized to ddG of purified proteins
In experiment [1] the target is bovine alpha-chymotrypsin (Bos taurus) (UniProt P00766).
Experiment [2] addresses bovine trypsin (Bos taurus) (UniProt P00760).
Experiment [3] has as its target human mesotrypsin (Homo sapiens) (UniProt P35030).

For the substance G36N (from UniProt P00974), the values for the ddG in experiment [1], in experiment [2] and in experiment [3] were 4.22 kcal/mol, 4.68 kcal/mol and 2.36 kcal/mol, respectively.

For the substance G36P (from UniProt P00974), the ddG turned out to be 4.71 kcal/mol in experiment [1], 8.35 kcal/mol in experiment [2] and 2.04 kcal/mol in experiment [3].

Take G36Q (from UniProt P00974): the ddG in experiment [1] was 3.25 kcal/mol; in experiment [2], 4.88 kcal/mol; in experiment [3], 0.769 kcal/mol.

In the case of G36R (from UniProt P00974), the ddG in experiment [1] is 2.77 kcal/mol; in experiment [2], 3.54 kcal/mol; in experiment [3], 2 kcal/mol.

As to G36S (from UniProt P00974), the ddG came out at 0.998 kcal/mol in experiment [1], 3.42 kcal/mol in experiment [2] and 2 kcal/mol in experiment [3].

Take G36T (from UniProt P00974): the ddG was found to be 3.63 kcal/mol in experiment [1], 4.54 kcal/mol in experiment [2] and 1.73 kcal/mol in experiment [3].

For G36V (from UniProt P00974), the values for the ddG in experiment [1], in experiment [2] and in experiment [3] were 3.4 kcal/mol, 6.93 kcal/mol and 1.3 kcal/mol, respectively.

For G36W (from UniProt P00974), the ddG was found to be 3.4 kcal/mol in experiment [1], 6.11 kcal/mol in experiment [2] and 1.26 kcal/mol in experiment [3].

Consider G36Y (from UniProt P00974), for which the results for the ddG in experiment [1], in experiment [2] and in experiment [3] were 3.77 kcal/mol, 4.23 kcal/mol and 1.75 kcal/mol, respectively.

With G37A (from UniProt P00974), the ddG was 0.493 kcal/mol in experiment [1], 1.47 kcal/mol in experiment [2] and -0.0136 kcal/mol in experiment [3].

Take G37C (from UniProt P00974): the ddG in experiment [1] amounted to 2.46 kcal/mol; in experiment [2] it was 7.33 kcal/mol; in experiment [3], 1.03 kcal/mol.

In the case of G37D (from UniProt P00974), the ddG amounted to 2.92 kcal/mol in experiment [1], 7.4 kcal/mol in experiment [2] and 1.59 kcal/mol in experiment [3].

As for G37E (from UniProt P00974), the ddG in experiment [1] came to 4.28 kcal/mol; in experiment [2], 7.31 kcal/mol; in experiment [3] it was 2.65 kcal/mol.

On to G37F (from UniProt P00974), for which the ddG came out at 2.99 kcal/mol in experiment [1], 3.37 kcal/mol in experiment [2] and 0.00167 kcal/mol in experiment [3].

As for G37H (from UniProt P00974), the values for the ddG in experiment [1], in experiment [2] and in experiment [3] were 0.754 kcal/mol, 3.53 kcal/mol and -0.0769 kcal/mol, respectively.

G37I (from UniProt P00974): the values for the ddG in experiment [1], in experiment [2] and in experiment [3] were 3.83 kcal/mol, 6.41 kcal/mol and 1.2 kcal/mol, respectively.

As to G37K (from UniProt P00974), the figures for the ddG in experiment [1], in experiment [2] and in experiment [3] were 0.426 kcal/mol, 3.41 kcal/mol and -0.238 kcal/mol, respectively.

Take G37L (from UniProt P00974): the ddG is 0.504 kcal/mol in experiment [1], 1.95 kcal/mol in experiment [2] and -0.0391 kcal/mol in experiment [3].

As to G37M (from UniProt P00974), the ddG is 0.482 kcal/mol in experiment [1], 1.36 kcal/mol in experiment [2] and -1.07 kcal/mol in experiment [3].

Take G37N (from UniProt P00974): the ddG in experiment [1] stood at 0.36 kcal/mol; in experiment [2], 2.1 kcal/mol; in experiment [3] it was 0.165 kcal/mol.

For G37P (from UniProt P00974), the ddG in experiment [1] turned out to be 4.27 kcal/mol; in experiment [2], 10.9 kcal/mol; in experiment [3] it was 1.99 kcal/mol.

With G37Q (from UniProt P00974), the ddG is 2.64 kcal/mol in experiment [1], 3.9 kcal/mol in experiment [2] and 1.53 kcal/mol in experiment [3].

Regarding G37R (from UniProt P00974), the ddG in experiment [1] was 0.363 kcal/mol; in experiment [2] it was 3.4 kcal/mol; in experiment [3], 1.32 kcal/mol.

For G37S (from UniProt P00974), the ddG in experiment [1] stood at 3.32 kcal/mol; in experiment [2], 3.01 kcal/mol; in experiment [3], 1.78 kcal/mol.

As for G37T (from UniProt P00974), the ddG in experiment [1] amounted to 4.57 kcal/mol; in experiment [2], 4 kcal/mol; in experiment [3] it was 1.86 kcal/mol.

G37V (from UniProt P00974): the ddG in experiment [1] came to 3.38 kcal/mol; in experiment [2] it was 5.68 kcal/mol; in experiment [3] it was 0.951 kcal/mol.

Take G37W (from UniProt P00974): the results for the ddG in experiment [1], in experiment [2] and in experiment [3] were 3.06 kcal/mol, 5.24 kcal/mol and 1.16 kcal/mol, respectively.

Turning to G37Y (from UniProt P00974), the ddG is 2.09 kcal/mol in experiment [1], 4.18 kcal/mol in experiment [2] and -0.0902 kcal/mol in experiment [3].

In the case of I18A (from UniProt P00974), the ddG in experiment [1] was determined as 1.36 kcal/mol; in experiment [2] it was 5.04 kcal/mol; in experiment [3], 2.05 kcal/mol.

For I18C (from UniProt P00974), the results for the ddG in experiment [1], in experiment [2] and in experiment [3] were 0.414 kcal/mol, 4.95 kcal/mol and -0.00349 kcal/mol, respectively.

For the substance I18D (from UniProt P00974), the ddG came out at 3.31 kcal/mol in experiment [1], 4.36 kcal/mol in experiment [2] and 1.56 kcal/mol in experiment [3].

Turning to I18E (from UniProt P00974), the ddG in experiment [1] worked out at 4.38 kcal/mol; in experiment [2], 4.14 kcal/mol; in experiment [3], 0.908 kcal/mol.

I18F (from UniProt P00974): the ddG in experiment [1] is -0.849 kcal/mol; in experiment [2], 1.81 kcal/mol; in experiment [3], -1.46 kcal/mol.

For the substance I18G (from UniProt P00974), the ddG was 2.64 kcal/mol in experiment [1], 4.37 kcal/mol in experiment [2] and 2.09 kcal/mol in experiment [3].

On to I18H (from UniProt P00974), for which the ddG in experiment [1] is 0.699 kcal/mol; in experiment [2], 3.4 kcal/mol; in experiment [3], 1.37 kcal/mol.

I18K (from UniProt P00974): the ddG in experiment [1] was -0.224 kcal/mol; in experiment [2], 3.89 kcal/mol; in experiment [3], -0.346 kcal/mol.

Take I18L (from UniProt P00974): the ddG in experiment [1] was -0.539 kcal/mol; in experiment [2] it was 3.33 kcal/mol; in experiment [3], -0.186 kcal/mol.

In the case of I18M (from UniProt P00974), the ddG in experiment [1] is -0.461 kcal/mol; in experiment [2], 3.24 kcal/mol; in experiment [3], -1.03 kcal/mol.

For I18N (from UniProt P00974), the ddG in experiment [1] worked out at 0.922 kcal/mol; in experiment [2] it was 4.24 kcal/mol; in experiment [3], 1.77 kcal/mol.

Take I18P (from UniProt P00974): the ddG worked out at 3.52 kcal/mol in experiment [1], 5.14 kcal/mol in experiment [2] and 1.78 kcal/mol in experiment [3].

In the case of I18Q (from UniProt P00974), the values for the ddG in experiment [1], in experiment [2] and in experiment [3] were 0.598 kcal/mol, 3.4 kcal/mol and 2.43 kcal/mol, respectively.

In the case of I18R (from UniProt P00974), the ddG in experiment [1] was -1.46 kcal/mol; in experiment [2], 3.48 kcal/mol; in experiment [3], 1.18 kcal/mol.

As to I18S (from UniProt P00974), the ddG in experiment [1] was found to be 1.04 kcal/mol; in experiment [2] it was 4.84 kcal/mol; in experiment [3] it was 1.5 kcal/mol.

Take I18T (from UniProt P00974): the ddG in experiment [1] turned out to be 0.691 kcal/mol; in experiment [2], 4.57 kcal/mol; in experiment [3], 1.47 kcal/mol.

As for I18V (from UniProt P00974), the ddG is 0.509 kcal/mol in experiment [1], 2.97 kcal/mol in experiment [2] and 0.0432 kcal/mol in experiment [3].

Consider I18W (from UniProt P00974), for which the ddG in experiment [1] stood at 0.589 kcal/mol; in experiment [2] it was 2.53 kcal/mol; in experiment [3], 0.255 kcal/mol.

Take I18Y (from UniProt P00974): the results for the ddG in experiment [1], in experiment [2] and in experiment [3] were 0.906 kcal/mol, 2.17 kcal/mol and 0.0668 kcal/mol, respectively.

With K15A (from UniProt P00974), the ddG in experiment [1] worked out at 4.17 kcal/mol; in experiment [2], 11.1 kcal/mol; in experiment [3] it was 0.801 kcal/mol.

For the substance K15C (from UniProt P00974), the ddG in experiment [1] was 4.09 kcal/mol; in experiment [2], 11.6 kcal/mol; in experiment [3], 2.02 kcal/mol.

In the case of K15D (from UniProt P00974), the ddG in experiment [1] was 3.6 kcal/mol; in experiment [2], 9.44 kcal/mol; in experiment [3], 1.47 kcal/mol.

As to K15E (from UniProt P00974), the ddG in experiment [1] was determined as 2.98 kcal/mol; in experiment [2], 8.94 kcal/mol; in experiment [3] it was 1.56 kcal/mol.

In the case of K15F (from UniProt P00974), the ddG in experiment [1] was -1.97 kcal/mol; in experiment [2], 8.29 kcal/mol; in experiment [3], 1.34 kcal/mol.

In the case of K15G (from UniProt P00974), the ddG in experiment [1] worked out at 4.57 kcal/mol; in experiment [2] it was 11 kcal/mol; in experiment [3], 1.97 kcal/mol.

With K15H (from UniProt P00974), the values for the ddG in experiment [1], in experiment [2] and in experiment [3] were 0.371 kcal/mol, 8.36 kcal/mol and 1.71 kcal/mol, respectively.

In the case of K15I (from UniProt P00974), the ddG in experiment [1] was 3.26 kcal/mol; in experiment [2], 10.5 kcal/mol; in experiment [3], 0.509 kcal/mol.

Regarding K15L (from UniProt P00974), the ddG in experiment [1] was -1.36 kcal/mol; in experiment [2], 9.41 kcal/mol; in experiment [3] it was 2.02 kcal/mol.

Take K15M (from UniProt P00974): the ddG is -1.57 kcal/mol in experiment [1], 8.61 kcal/mol in experiment [2] and 2 kcal/mol in experiment [3].

Consider K15N (from UniProt P00974), for which the ddG in experiment [1] turned out to be 1.87 kcal/mol; in experiment [2], 8.61 kcal/mol; in experiment [3], 1.48 kcal/mol.

Regarding K15P (from UniProt P00974), the results for the ddG in experiment [1], in experiment [2] and in experiment [3] were 3.48 kcal/mol, 9.77 kcal/mol and 2.66 kcal/mol, respectively.

As to K15Q (from UniProt P00974), the ddG in experiment [1] amounted to 0.534 kcal/mol; in experiment [2] it was 8.15 kcal/mol; in experiment [3], 2.25 kcal/mol.

Consider K15R (from UniProt P00974), for which the figures for the ddG in experiment [1], in experiment [2] and in experiment [3] were -1.27 kcal/mol, -1.44 kcal/mol and -0.295 kcal/mol, respectively.

On to K15S (from UniProt P00974), for which the ddG in experiment [1] was 3.53 kcal/mol; in experiment [2] it was 8.76 kcal/mol; in experiment [3] it was 1.71 kcal/mol.

Regarding K15T (from UniProt P00974), the ddG in experiment [1] turned out to be 3.21 kcal/mol; in experiment [2] it was 9.61 kcal/mol; in experiment [3], 2.54 kcal/mol.

The values are drawn from paper PMC8532158.
